Screens deposited in PubChem BioAssay by ICCB-Longwood Screening Facility, Harvard Medical School.
GIV Gai3 FP = inhibitors of GIV peptide binding to Galpha-i3, primary screen, biochemical, fluorescence polarization, FITC-GIV GBA peptide, rat Galphai3; 90 min; stronger effect = lower value; scaled: aluminum fluoride 0%, vehicle 100%; percent of control (FP), % (no concentration beside the values); 210,000 tested, 0.42% active; AID 1224905, 2016;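 active = replicate mean at 85% of control or lower, very high polarization wells dropped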;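 note: wells of about 15 µL received 100 nL stock; the first replicate is given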
An asterisk follows results filed as active. Shown is part of a subset that was picked to be rich in hits.

Screening O=C1c2ccccc2-c2onc3ccc(Oc4c(F)c(F)c(F)c(F)c4F)c1c23 returned GIV Gai3 FP 103.1.
Screening O=c1oc2ccccc2nc1/C=C(\O)c1ccccc1 returned GIV Gai3 FP 46.1*.
CC(C)C/C(O)=C/c1nc2cc(Cl)ccc2oc1=O was read as GIV Gai3 FP 100.7.
Screening CC(C)(C)/C(O)=C/c1nc2ccccc2oc1=O returned GIV Gai3 FP 102.9.
`Cc1nc(C)c(/C(O)=C/c2nc3cc(Cl)ccc3oc2=O)o1` gave GIV Gai3 FP 110.7.
Screening O=c1oc2ccc(Cl)cc2nc1/C=C(\O)c1ccco1 returned GIV Gai3 FP 2.2*.
For O=C(O)CCc1nc2ccccc2oc1=O the results were GIV Gai3 FP 113.0.
`O=C(C1CCC1)N1CCCc2cc(S(=O)(=O)N3CCc4ccccc4C3)ccc21` gave GIV Gai3 FP 99.5.
`CC1(C)Cc2nc3sc4c(=O)n(CC(=O)NCC5CCCO5)cnc4c3cc2CO1` (stereo not given) gave GIV Gai3 FP 97.3.
Oc1c(C=NCc2ccccc2)sc2ccccc12 was read as GIV Gai3 FP 115.0.

The last 4 records of the part before open the next one.
For O=C(O)CCc1nc2ccccc2oc1=O the results were GIV Gai3 FP 113.0.
`O=C(C1CCC1)N1CCCc2cc(S(=O)(=O)N3CCc4ccccc4C3)ccc21` gave GIV Gai3 FP 99.5.
`CC1(C)Cc2nc3sc4c(=O)n(CC(=O)NCC5CCCO5)cnc4c3cc2CO1` (stereo not given) gave GIV Gai3 FP 97.3.
Oc1c(C=NCc2ccccc2)sc2ccccc12 was read as GIV Gai3 FP 115.0.
`COc1ccc(N=Cc2sc3ccccc3c2O)cc1` gave GIV Gai3 FP -32.1*.
Screening O=[N+]([O-])c1cccc(N=Cc2sc3ccccc3c2O)c1 returned GIV Gai3 FP 106.8.
For O=C(Nc1cccnc1)C1CCN(S(=O)(=O)c2cccnc2)CC1 the results were GIV Gai3 FP 106.0.
For Cc1ccc(C2CC(c3cccs3)=NN2C(=O)CSc2nnc(CNC(=O)c3cccc([N+](=O)[O-])c3C)n2C)cc1 (stereo not given) the results were GIV Gai3 FP 117.7.
`CCCCNC(=O)c1c[nH]c2c(F)cccc2c1=O` gave GIV Gai3 FP 102.7.
COc1cc(/C=C2\Oc3ccc4c(C)cc(=O)oc4c3C2=O)ccc1O was read as GIV Gai3 FP 103.6.
Screening COc1ccc(/C=C2\OC(=S)N(C)C2=O)cc1 returned GIV Gai3 FP 102.6.
COc1cc(/C=C2/OC(=S)N(C)C2=O)ccc1O was read as GIV Gai3 FP -72.6*.
N#CSc1sc(N)nc1-c1ccccc1 was read as GIV Gai3 FP 107.1.
For Cc1nc(-c2cc(NC(=O)c3ccc(Cl)cc3)c(C)s2)no1 the results were GIV Gai3 FP 97.9.
For CCn1c(O)c(C=Nc2cccc(Cl)c2)c(=O)[nH]c1=S the results were GIV Gai3 FP 109.5.
Screening CCn1c(O)c(C=Nc2cccc(O)c2)sc1=S returned GIV Gai3 FP 65.7*.
Screening CCn1c(O)c(C=Nc2ccccc2)oc1=S returned GIV Gai3 FP 92.0.
COc1cc2c(=O)n(Cc3ccc(C(=O)NCCC(C)C)cc3)c(=O)n(CC(N)=O)c2cc1OC was read as GIV Gai3 FP 103.4.
`CCOc1ccc(N2C(=O)/C(=C/c3c(OC)ccc4ccccc34)C(=O)NC2=S)cc1` gave GIV Gai3 FP 109.7.
`CN1CCc2c(sc3c2C(=O)NC(c2ccc(OC(=O)c4ccc(C(C)(C)C)cc4)cc2)N3)C1` (stereo not given) gave GIV Gai3 FP 159.3.
CN1CCc2c(sc3c2C(=O)NC(c2ccc(OC(=O)c4ccc(Cl)cc4)cc2)N3)C1 (stereo not given) was read as GIV Gai3 FP 220.9.
`CN1CCc2c(sc3c2C(=O)NC(c2ccc(OC(=O)c4ccccc4)cc2)N3)C1` (stereo not given) gave GIV Gai3 FP 23.1*.
`COc1cccc(NC(=O)Cn2ncn3nc4c(c3c2=O)CCCC4)c1` gave GIV Gai3 FP 103.3.
CCN(CCN(C)C)c1ncc(C(=O)O)cc1NS(=O)(=O)c1ccc(Br)cc1 was read as GIV Gai3 FP 100.8.
CCN(CC)c1ncc(C(=O)O)cc1NS(=O)(=O)c1ccc(Br)cc1 was read as GIV Gai3 FP 85.4*.
`CCCCN(CC)c1ncc(C(=O)O)cc1NS(=O)(=O)c1ccc(Br)cc1` gave GIV Gai3 FP 107.8.
CCC(=O)Nc1cccc(-c2noc(C3CCCN(C(=O)c4ccc(C(C)(C)C)cc4)C3)n2)c1 (stereo not given) was read as GIV Gai3 FP 106.4.
For O=C(/C=C/NCc1ccccc1)c1cccs1 the results were GIV Gai3 FP 106.5.
`CN(C)c1ccc(C2=CC(C3CC3)=C(C#N)C(=C(C#N)C#N)N2)cc1` gave GIV Gai3 FP 104.9.
Screening COc1ccc(-c2cc(C3CC3)[nH]c(=S)c2C#N)cc1 returned GIV Gai3 FP 103.2.
COc1ccc(C2=CC(C3CC3)=C(C#N)C(=C(C#N)C#N)N2)cc1 was read as GIV Gai3 FP 65.2*.
For Fc1c(F)c(F)c(C2Nc3cccc4cccc(c34)N2)c(F)c1F the results were GIV Gai3 FP 110.4.
`COC(=O)C1=C(C)N(Cc2ccccc2)C(=O)/C1=C\c1cccc(Cl)c1` gave GIV Gai3 FP 50.6*.
`COC(=O)C1=C(C)N(Cc2ccccc2)C(=O)/C1=C\c1cccc(O)c1` gave GIV Gai3 FP 107.9.
Screening C=CCN1C(=O)/C(=C\c2ccccc2)C(C(=O)OC)=C1C returned GIV Gai3 FP 99.5.
Screening COc1cc(C2N(c3ccc(Cl)cc3)N=C(C(C)=O)N2c2ccccc2)ccc1OCc1c(Cl)cccc1Cl (stereo not given) returned GIV Gai3 FP 111.2.
For CC(=O)NC(C)c1nc(-c2cccc(C)c2)no1 (stereo not given) the results were GIV Gai3 FP 99.0.
Screening O=C(COc1nsnc1N1CCOCC1)N/N=C/c1cccc(Br)c1 returned GIV Gai3 FP 100.6.
`CO/C=C1\SC(=S)N(CCc2ccccc2)C1=O` gave GIV Gai3 FP 154.1.
O=C1/C(=C/c2ccc(O)cc2)SC(=S)N1CCc1ccccc1 was read as GIV Gai3 FP -5.9*.
Screening O=C(CN1C(=O)S/C(=C\c2ccc(O)cc2)C1=O)c1ccccc1 returned GIV Gai3 FP 111.2.
Cc1nc(Nc2ccc(NS(=O)(=O)c3ccc(F)cc3)cc2)cc(N(C)C)n1 was read as GIV Gai3 FP 96.1.
For COc1ccc(/C=C2\N=C(c3cc([N+](=O)[O-])ccc3Cl)OC2=O)c(OC)c1OC the results were GIV Gai3 FP 104.9.
Screening O=c1oc(-c2ccco2)nc2scc(-c3cccs3)c12 returned GIV Gai3 FP 94.5.

Arranged by length of the SMILES (lowest first): three of the compounds above.
COc1cc(/C=C2\Oc3ccc4c(C)cc(=O)oc4c3C2=O)ccc1O was read as GIV Gai3 FP 103.6.
`COC(=O)C1=C(C)N(Cc2ccccc2)C(=O)/C1=C\c1cccc(Cl)c1` gave GIV Gai3 FP 50.6*.
Cc1nc(Nc2ccc(NS(=O)(=O)c3ccc(F)cc3)cc2)cc(N(C)C)n1 was read as GIV Gai3 FP 96.1.

Next entries
For Nc1c(C(=O)c2cccs2)oc2nc(-c3cccs3)cc(-c3ccco3)c12 the results were GIV Gai3 FP -53.5*.
Screening N#Cc1c(-c2ccco2)cc(-c2cccs2)nc1N returned GIV Gai3 FP 114.2.
For CN(C)c1nc2c(c(=O)n(C)c(=O)n2C)n1C the results were GIV Gai3 FP 102.7.
CCN1C(=O)COc2ccc(-c3noc(CNC(=O)c4ccccc4)n3)cc21 was read as GIV Gai3 FP 101.3.
For Cc1nc(-c2cccs2)c(CC(=O)NC2=NCCS2)s1 the results were GIV Gai3 FP 100.5.
Screening COc1ccccc1CN1CC(=O)N(c2ccc(C)c(C)c2)[C@@H]2CS(=O)(=O)C[C@@H]21 returned GIV Gai3 FP 100.6.
Screening C=CCOc1cccc(C2Nc3ccc(Cl)cc3[C@H]3OCCC[C@@H]23)c1 (stereo not given in full) returned GIV Gai3 FP 98.5.
Screening CN1C(=O)/C(=C\C=C\c2ccc(N(C)C)cc2)SC1=S returned GIV Gai3 FP 125.5.
Screening CN(C)c1ccc(/C=C2\SC(=O)N(Cc3ccccc3)C2=O)cc1 returned GIV Gai3 FP 153.7.
`C#CCN1C(=O)S/C(=C/C=C/c2ccc(N(C)C)cc2)C1=O` gave GIV Gai3 FP -61.3*.
For COc1cc(C=C2C(=O)N(C)C(=O)N(C)C2=O)ccc1OS(=O)(=O)c1ccccc1[N+](=O)[O-] the results were GIV Gai3 FP 95.4.
